Biological target: human, mouse or rat recombinant CSE (Homo sapiens, UniProt P32929)
Assay: CSE in vitro assay (H2S generation from DL-homocysteine, absorbance at 671 nm)
Conditions: Table 1, 30 min preincubation, DL-homocysteine substrate, 3 h at 37 C

The chains behind the UniProt entries cited, without tags or fusion partners.
UniProt P32929, whole entry, looked up: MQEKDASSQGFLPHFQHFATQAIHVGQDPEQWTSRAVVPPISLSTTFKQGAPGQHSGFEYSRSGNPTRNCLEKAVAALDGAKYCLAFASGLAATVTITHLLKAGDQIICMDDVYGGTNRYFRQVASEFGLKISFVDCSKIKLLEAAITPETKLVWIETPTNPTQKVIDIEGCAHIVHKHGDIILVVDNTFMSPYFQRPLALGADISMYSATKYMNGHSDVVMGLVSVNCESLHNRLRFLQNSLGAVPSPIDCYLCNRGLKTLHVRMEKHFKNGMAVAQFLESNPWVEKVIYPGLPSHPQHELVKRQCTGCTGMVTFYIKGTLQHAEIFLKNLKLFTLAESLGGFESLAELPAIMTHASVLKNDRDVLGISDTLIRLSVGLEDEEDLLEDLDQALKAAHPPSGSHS

Q: How did the IC50 turn out when NN(CCCc1nnn[nH]1)c1nnn[nH]1 was run?
A: Its IC50 is 10 to 100 µM.

— patent US9725426B2, “Cystathionine-γ-lyase (CSE) inhibitors” (SOVA PHARMACEUTICALS, INC., priority 2012, dated 2017)
